In patent US20230398228A1, “ERIBULIN-BASED ANTIBODY-DRUG CONJUGATES AND METHODS OF USE” (EISAI R&D MANAGEMENT CO., LTD., priority 2016, published 2023):
Where “and” joins values, the source holds several entries; their conditions need not be identical. Identical values can stand only once. Like-named read-outs stand apart in the source and are kept apart here.

System: NCI-H2110 xenograft
Details: for tumor growth inhibition (TGI): Day 24; for regressed tumors that re-grew or remained measurable (fraction of mice): 30 days after the last dose; for Body weight, group MEAN: N 5
[1] = eribulin 0.2 mg/kg q4dX3 i.v., day 38 post 1st dose
[2] = eribulin 1.6 mg/kg q4dx3 i.v., day 17 post 1st dose

## C=C1C[C@@H]2CC[C@@]34C[C@H]5O[C@H]6[C@@H](O3)[C@H]3O[C@H](CC[C@@H]3O[C@H]6[C@H]5O4)CC(=O)C[C@@H]3[C@@H](OC)[C@@H](C[C@H](O)CN)O[C@H]3C[C@H]3O[C@@H](CC[C@@H]1O2)C[C@@H](C)C3=C [eribulin]
0.05 mg/kg q4dx3
  tumor regression, in words: no tumor regression observed
0.05 mg/kg q4dx3 i.v.
  tumor growth inhibition (TGI): 50.5%
0.2 mg/kg and higher, q4dX3 i.v.
  tumor regression, in words: Tumor regression was achieved
0.2 mg/kg group
  regressed tumors that re-grew or remained measurable (fraction of mice): ⅗
0.8 mg/kg group
  regressed tumors that re-grew or remained measurable (fraction of mice): ⅘
1.6 mg/kg group
  regressed tumors that re-grew or remained measurable (fraction of mice): ⅖
0.2, 0.8, or 1.6 mg/kg q4dx3 i.v.
  tumor growth inhibition (TGI): 99%
Eribulin 0.05 mg/kg q4dX3 i.v., day 0 post 1st dose
  Body weight, group MEAN: 18.4
Eribulin 0.05 mg/kg q4dX3 i.v., day 3 post 1st dose
  Body weight, group MEAN: 18.8
Eribulin 0.05 mg/kg q4dX3 i.v., day 5 post 1st dose
  Body weight, group MEAN: 18.8
Eribulin 0.05 mg/kg q4dX3 i.v., day 7 post 1st dose
  Body weight, group MEAN: 18.8
Eribulin 0.05 mg/kg q4dX3 i.v., day 10 post 1st dose
  Body weight, group MEAN: 18.8
Eribulin 0.05 mg/kg q4dX3 i.v., day 12 post 1st dose
  Body weight, group MEAN: 18.5
Eribulin 0.05 mg/kg q4dX3 i.v., day 17 post 1st dose
  Body weight, group MEAN: 19.2
Eribulin 0.05 mg/kg q4dX3 i.v., day 19 post 1st dose
  Body weight, group MEAN: 18.5
Eribulin 0.05 mg/kg q4dX3 i.v., day 24 post 1st dose
  Body weight, group MEAN: 17.9
Eribulin 0.05 mg/kg q4dx3 i.v., day 0 post 1st dose
  tumor volume, group MEAN: 87.6 mm^3
Eribulin 0.05 mg/kg q4dx3 i.v., day 3 post 1st dose
  tumor volume, group MEAN: 133.2 mm^3
Eribulin 0.05 mg/kg q4dx3 i.v., day 5 post 1st dose
  tumor volume, group MEAN: 201.8 mm^3
Eribulin 0.05 mg/kg q4dx3 i.v., day 7 post 1st dose
  tumor volume, group MEAN: 229.2 mm^3
Eribulin 0.05 mg/kg q4dx3 i.v., day 10 post 1st dose
  tumor volume, group MEAN: 317 mm^3
Eribulin 0.05 mg/kg q4dx3 i.v., day 10 post 1st dose (second line so printed, between 17 and 24)
  tumor volume, group MEAN: 765.4 mm^3
Eribulin 0.05 mg/kg q4dx3 i.v., day 12 post 1st dose
  tumor volume, group MEAN: 347.4 mm^3
Eribulin 0.05 mg/kg q4dx3 i.v., day 17 post 1st dose
  tumor volume, group MEAN: 628.2 mm^3
Eribulin 0.05 mg/kg q4dx3 i.v., day 24 post 1st dose
  tumor volume, group MEAN: 1036.8 mm^3
Eribulin 0.2 mg/kg q4dX3 i.v., day 0 post 1st dose
  Body weight, group MEAN: 18.4
Eribulin 0.2 mg/kg q4dX3 i.v., day 3 post 1st dose
  Body weight, group MEAN: 18.7
Eribulin 0.2 mg/kg q4dX3 i.v., day 5 post 1st dose
  Body weight, group MEAN: 19.0
Eribulin 0.2 mg/kg q4dX3 i.v., day 7 post 1st dose
  Body weight, group MEAN: 18.9
Eribulin 0.2 mg/kg q4dX3 i.v., day 10 post 1st dose
  Body weight, group MEAN: 18.8
Eribulin 0.2 mg/kg q4dX3 i.v., day 12 post 1st dose
  Body weight, group MEAN: 18.8
Eribulin 0.2 mg/kg q4dX3 i.v., day 17 post 1st dose
  Body weight, group MEAN: 19.1
Eribulin 0.2 mg/kg q4dX3 i.v., day 19 post 1st dose
  Body weight, group MEAN: 18.8
Eribulin 0.2 mg/kg q4dX3 i.v., day 24 post 1st dose
  Body weight, group MEAN: 19.3
Eribulin 0.2 mg/kg q4dX3 i.v., day 26 post 1st dose
  Body weight, group MEAN: 19.5
Eribulin 0.2 mg/kg q4dX3 i.v., day 28 post 1st dose
  Body weight, group MEAN: 20.4
Eribulin 0.2 mg/kg q4dX3 i.v., day 31 post 1st dose
  Body weight, group MEAN: 20.3
Eribulin 0.2 mg/kg q4dX3 i.v., day 33 post 1st dose
  Body weight, group MEAN: 20.3
Eribulin 0.2 mg/kg q4dX3 i.v., day 35 post 1st dose
  Body weight, group MEAN: 20.1
[1]
  Body weight, individual animal: 20.8 and 18.3 and 21.6 (2×)
  Body weight, group MEAN: 20.5
Eribulin 0.2 mg/kg q4dx3 i.v., day 0 post 1st dose
  tumor volume, group MEAN: 88.2 mm^3
Eribulin 0.2 mg/kg q4dx3 i.v., day 3 post 1st dose
  tumor volume, group MEAN: 64.4 mm^3
Eribulin 0.2 mg/kg q4dx3 i.v., day 5 post 1st dose
  tumor volume, group MEAN: 61.8 mm^3
Eribulin 0.2 mg/kg q4dx3 i.v., day 7 post 1st dose
  tumor volume, group MEAN: 46 mm^3
Eribulin 0.2 mg/kg q4dx3 i.v., day 10 post 1st dose
  tumor volume, group MEAN: 36.6 mm^3
Eribulin 0.2 mg/kg q4dx3 i.v., day 10 post 1st dose (second line so printed, between 17 and 24)
  tumor volume, group MEAN: 28 mm^3
Eribulin 0.2 mg/kg q4dx3 i.v., day 12 post 1st dose
  tumor volume, group MEAN: 22 mm^3
Eribulin 0.2 mg/kg q4dx3 i.v., day 17 post 1st dose
  tumor volume, group MEAN: 2.6 mm^3
Eribulin 0.2 mg/kg q4dx3 i.v., day 24 post 1st dose
  tumor volume, group MEAN: 13.6 mm^3
Eribulin 0.2 mg/kg q4dx3 i.v., day 26 post 1st dose
  tumor volume, group MEAN: 9.8 mm^3
Eribulin 0.2 mg/kg q4dx3 i.v., day 28 post 1st dose
  tumor volume, group MEAN: 20.8 mm^3
Eribulin 0.2 mg/kg q4dx3 i.v., day 31 post 1st dose
  tumor volume, group MEAN: 11.4 mm^3
Eribulin 0.2 mg/kg q4dx3 i.v., day 33 post 1st dose
  tumor volume, group MEAN: 12.4 mm^3
Eribulin 0.2 mg/kg q4dx3 i.v., day 35 post 1st dose
  tumor volume, group MEAN: 15.4 mm^3
Eribulin 0.2 mg/kg q4dx3 i.v., day 38 post 1st dose
  tumor volume, group MEAN: 15.6 mm^3
Eribulin 0.8 mg/kg q4dX3 i.v., day 0 post 1st dose
  Body weight, group MEAN: 18.1
Eribulin 0.8 mg/kg q4dX3 i.v., day 3 post 1st dose
  Body weight, group MEAN: 18.5
Eribulin 0.8 mg/kg q4dX3 i.v., day 5 post 1st dose
  Body weight, group MEAN: 18.3
Eribulin 0.8 mg/kg q4dX3 i.v., day 7 post 1st dose
  Body weight, group MEAN: 18.6
Eribulin 0.8 mg/kg q4dX3 i.v., day 10 post 1st dose
  Body weight, group MEAN: 18.5
Eribulin 0.8 mg/kg q4dX3 i.v., day 12 post 1st dose
  Body weight, group MEAN: 18.3
Eribulin 0.8 mg/kg q4dX3 i.v., day 17 post 1st dose
  Body weight, group MEAN: 18.5
Eribulin 0.8 mg/kg q4dX3 i.v., day 19 post 1st dose
  Body weight, group MEAN: 18.5
Eribulin 0.8 mg/kg q4dX3 i.v., day 24 post 1st dose
  Body weight, group MEAN: 18.6
Eribulin 0.8 mg/kg q4dX3 i.v., day 26 post 1st dose
  Body weight, group MEAN: 18.8
Eribulin 0.8 mg/kg q4dX3 i.v., day 28 post 1st dose
  Body weight, group MEAN: 19.7
Eribulin 0.8 mg/kg q4dX3 i.v., day 31 post 1st dose
  Body weight, group MEAN: 19.7
Eribulin 0.8 mg/kg q4dX3 i.v., day 33 post 1st dose
  Body weight, group MEAN: 19.7
Eribulin 0.8 mg/kg q4dx3 i.v., day 0 post 1st dose
  tumor volume, group MEAN: 88.6 mm^3
Eribulin 0.8 mg/kg q4dx3 i.v., day 3 post 1st dose
  tumor volume, group MEAN: 46.6 mm^3
Eribulin 0.8 mg/kg q4dx3 i.v., day 5 post 1st dose
  tumor volume, group MEAN: 32.4 mm^3
Eribulin 0.8 mg/kg q4dx3 i.v., day 7 post 1st dose
  tumor volume, group MEAN: 24.4 mm^3
Eribulin 0.8 mg/kg q4dx3 i.v., day 10 post 1st dose
  tumor volume, group MEAN: 16.8 mm^3
Eribulin 0.8 mg/kg q4dx3 i.v., day 10 post 1st dose (second line so printed, between 17 and 24)
  tumor volume, group MEAN: 13 mm^3
Eribulin 0.8 mg/kg q4dx3 i.v., day 12 post 1st dose
  tumor volume, group MEAN: 18 mm^3
Eribulin 0.8 mg/kg q4dx3 i.v., day 17 post 1st dose
  tumor volume, group MEAN: 16.2 mm^3
Eribulin 0.8 mg/kg q4dx3 i.v., day 24 post 1st dose
  tumor volume, group MEAN: 13.4 mm^3
Eribulin 0.8 mg/kg q4dx3 i.v., day 26 post 1st dose
  tumor volume, group MEAN: 10.2 mm^3
Eribulin 0.8 mg/kg q4dx3 i.v., day 28 post 1st dose
  tumor volume, group MEAN: 13.4 mm^3
Eribulin 0.8 mg/kg q4dx3 i.v., day 31 post 1st dose
  tumor volume, group MEAN: 16 mm^3
Eribulin 0.8 mg/kg q4dx3 i.v., day 33 post 1st dose
  tumor volume, group MEAN: 16.6 mm^3
Eribulin 0.8 mg/kg q4dx3 i.v., day 35 post 1st dose
  tumor volume, group MEAN: 17 mm^3
Eribulin 0.8 mg/kg q4dx3 i.v., day 38 post 1st dose
  tumor volume, group MEAN: 18.2 mm^3
Eribulin 1.6 mg/kg q4dX3 i.v., day 0 post 1st dose
  Body weight, group MEAN: 18.2
Eribulin 1.6 mg/kg q4dX3 i.v., day 3 post 1st dose
  Body weight, group MEAN: 18.3
Eribulin 1.6 mg/kg q4dX3 i.v., day 5 post 1st dose
  Body weight, group MEAN: 18.2
Eribulin 1.6 mg/kg q4dX3 i.v., day 7 post 1st dose
  Body weight, group MEAN: 18.3
Eribulin 1.6 mg/kg q4dX3 i.v., day 10 post 1st dose
  Body weight, group MEAN: 18.4
Eribulin 1.6 mg/kg q4dX3 i.v., day 12 post 1st dose
  Body weight, group MEAN: 18.0
Eribulin 1.6 mg/kg q4dX3 i.v., day 17 post 1st dose
  Body weight, group MEAN: 18.7
Eribulin 1.6 mg/kg q4dX3 i.v., day 19 post 1st dose
  Body weight, group MEAN: 18.7
Eribulin 1.6 mg/kg q4dX3 i.v., day 24 post 1st dose
  Body weight, group MEAN: 19.0
Eribulin 1.6 mg/kg q4dX3 i.v., day 26 post 1st dose
  Body weight, group MEAN: 19.2
Eribulin 1.6 mg/kg q4dX3 i.v., day 28 post 1st dose
  Body weight, group MEAN: 20.1
Eribulin 1.6 mg/kg q4dX3 i.v., day 31 post 1st dose
  Body weight, group MEAN: 20.1
Eribulin 1.6 mg/kg q4dX3 i.v., day 33 post 1st dose
  Body weight, group MEAN: 20.0
Eribulin 1.6 mg/kg q4dX3 i.v., day 35 post 1st dose
  Body weight, group MEAN: 20.4
Eribulin 1.6 mg/kg q4dX3 i.v., day 38 post 1st dose
  Body weight, group MEAN: 20.1
Eribulin 1.6 mg/kg q4dx3 i.v., day 0 post 1st dose
  tumor volume, group MEAN: 88.4 mm^3
Eribulin 1.6 mg/kg q4dx3 i.v., day 3 post 1st dose
  tumor volume, group MEAN: 45.8 mm^3
Eribulin 1.6 mg/kg q4dx3 i.v., day 5 post 1st dose
  tumor volume, group MEAN: 25.4 mm^3
Eribulin 1.6 mg/kg q4dx3 i.v., day 7 post 1st dose
  tumor volume, group MEAN: 17.6 mm^3
Eribulin 1.6 mg/kg q4dx3 i.v., day 10 post 1st dose
  tumor volume, group MEAN: 11.6 mm^3
Eribulin 1.6 mg/kg q4dx3 i.v., day 10 post 1st dose (second line so printed, between 17 and 24)
  tumor volume, group MEAN: 3.8 mm^3
Eribulin 1.6 mg/kg q4dx3 i.v., day 12 post 1st dose
  tumor volume, group MEAN: 5.4 mm^3
[2]
  tumor volume, group MEAN: 0 mm^3
  tumor volumes in individual mice: 0 mm^3
Eribulin 1.6 mg/kg q4dx3 i.v., day 24 post 1st dose
  tumor volume, group MEAN: 7.4 mm^3
Eribulin 1.6 mg/kg q4dx3 i.v., day 26 post 1st dose
  tumor volume, group MEAN: 5 mm^3
Eribulin 1.6 mg/kg q4dx3 i.v., day 28 post 1st dose
  tumor volume, group MEAN: 3.2 mm^3
Eribulin 1.6 mg/kg q4dx3 i.v., day 31 post 1st dose
  tumor volume, group MEAN: 5.6 mm^3
Eribulin 1.6 mg/kg q4dx3 i.v., day 33 post 1st dose
  tumor volume, group MEAN: 7.2 mm^3
Eribulin 1.6 mg/kg q4dx3 i.v., day 35 post 1st dose
  tumor volume, group MEAN: 6.2 mm^3
Eribulin 1.6 mg/kg q4dx3 i.v., day 38 post 1st dose
  tumor volume, group MEAN: 6.2 mm^3
q4dx3 i.v.
  minimum efficacious dose that induced tumor regression: 0.2 mg/kg
